Screening data (PubChem BioAssay)
TDP1 block: TDP1 (human) enzyme inhibition. Potency, µM (series often up to 130 µM), most hits filed as inhibitors. Q9NUW8. 350,000 tested, 0.28% active. AID 485290. recombinant TDP1, AlphaScreen DNA substrate cleavage; note: nearly all actives have a fitted effect of over 40% in size
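AlphaScreen read-out: signal falls as enzyme removes the 3' tyrosine-FITC from a 5'-biotinylated DNA oligo (15 nM, 5 min, RT). Enzyme was E. coli-made recombinant Tdp1 at 1 nM, exposed to compound for 15 min beforehand; beads 10 ug/ml, 10 min.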
TDP1 cell noCPT: qHTS for Inhibitors of human tyrosyl-DNA phosphodiesterase 1 (TDP1): qHTS in cells in absence of CPT. DT40 Tdp1-/- hTDP1 cells, no CPT, ATP luminescence, 48 h. Potency, µM (titrated, usually from 46.2 µM), actives largely listed as inhibitors. 420,000 tested, 15% active. AID 686978, 2013; note: nearly all actives have a fitted effect of over 55% in size
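Seeded 400 DT40-hTDP1 cells/well (vehicle DMSO, no 20 nM CPT); pinned compounds; ≥48 hr at 37 °C; CellTiter-Glo luminescence as viability measure.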
miR-21 reporter: miR-21 reporter, rising signal. HeLa miR-21 FLuc reporter, luciferase, 48 h. Potency, µM (titrated, usually from 38.3 µM). 340,000 tested, under 10 active. AID 2288; active = well fitted rising curve with a large enough effect; inconclusive = small, poorly fitted or top-dose-only effect; inactive = no such curve, though single readings can be large or run the other way;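 also: miR-21 action dims this reporter so a rising signal means less miR-21 action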
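Compounds were titrated across several concentrations (up to approximately 40 uM) and incubated 48 hours with HeLa miR-21-FLuc reporter cells (miR-21 target sequence downstream of FLuc, endogenous miR-21). Readout was firefly luciferase luminescence after lytic detection reagent.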
DT40 TDP1 CPT: growth inhibition of DT40 Tdp1-/-;hTDP1 cells with camptothecin (screen for TDP1 inhibitors). chicken DT40 Tdp1-/-;hTDP1 cells + 20 nM CPT, ATP luminescence, 48 h. Potency, µM (highest dose often 46.2 µM), most hits filed as inhibitors. 420,000 tested, 12% active. AID 686979; note: nearly all actives have a fitted effect of over 55% in size
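Cell growth measured by CellTiter-Glo luminescence after a minimum 48 h, 37 C compound exposure with 20 nM CPT in Tdp1-knockout DT40 cells stably expressing hTDP1, seeded 400/well; qHTS titration format.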
uPA surface inh: blocks generation of uPA at the cell surface | cell surface uPA generation assay, qHTS | Potency, µM (highest dose often 38.3 µM), hits mostly inhibitors | 330,000 tested, 0.31% active | AID 540303; active = well fitted inhibition curve with a large enough effect; inconclusive = small, poorly fitted or top-dose-only effect; inactive = no such curve, though single readings can be large or run the other way; tested in mouse RAW 264.7 cells; note: nearly all actives have a fitted effect of over 55% in size
Each line names hits and unclear results; the compound was inactive in the other large screens. Only some compounds are listed: those with a hit (about 16% of all), similar ones and a draw of the others. Unless noted, calls come from the whole dose curve; as a rule, active = well fitted curve in the direction sought with a large enough effect; inconclusive = small, poorly fitted or top-dose-only effect, or another doubt; inactive = no such curve, though single readings can be large; an effect the other way counts as inactive or inconclusive.

CC(=O)OCC1OC(C#CCCc2ccccc2)C=CC1OC(C)=O (stereo not drawn)	none (no result: TDP1 cell noCPT, miR-21 reporter, DT40 TDP1 CPT, uPA surface inh)
C/C(=N\Nc1ccc(S(=O)(=O)N2CCCCC2)cn1)c1cccc(Br)c1	TDP1 cell noCPT 3.3µM, DT40 TDP1 CPT inconclusive (no result: miR-21 reporter)
CCOC(=O)c1cc(S(=O)(=O)N2CCN(C3CCCCC3)CC2)cn1C	none
O=S(=O)(c1cccs1)N1CN(Cc2ccccc2)c2nc3ccccc3nc21	TDP1 cell noCPT inconclusive, DT40 TDP1 CPT inconclusive
O=S(=O)(c1cccs1)N1CN(Cc2cccs2)c2nc3ccccc3nc21	TDP1 cell noCPT 16µM, DT40 TDP1 CPT inconclusive
C/C(=N\O)c1cc(Cl)cc(Cl)c1O	none
CCCc1[nH]nc2c1C(c1ccc(OC)c(CSC3=NCCS3)c1)C(C#N)=C(N)O2 (stereo not drawn)	TDP1 cell noCPT 21µM, DT40 TDP1 CPT inconclusive
Cc1cc(C(=O)Cn2nc(C(=O)O)c3ccccc3c2=O)c(C)n1-c1ccc(F)cc1	TDP1 cell noCPT inconclusive, DT40 TDP1 CPT 29µM
COc1cc(OC)c2c(-c3cccc(-c4ccoc4)c3)cc(=O)oc2c1	TDP1 cell noCPT inconclusive, DT40 TDP1 CPT inconclusive, uPA surface inh 10µM (no result: miR-21 reporter)
COc1cc(OC)c2c(-c3cccc(-c4ccc(C(C)=O)cc4)c3)cc(=O)oc2c1	TDP1 cell noCPT 0.92µM, DT40 TDP1 CPT 1.2µM, uPA surface inh inconclusive (no result: miR-21 reporter)
COc1cc(OC)c2c(-c3ccccc3)cc(=O)oc2c1	none
Fc1ccc(NC(=S)Nc2ccccc2OC(F)F)cc1Cl	TDP1 cell noCPT inconclusive, miR-21 reporter inconclusive, DT40 TDP1 CPT inconclusive
NC(=S)Nc1ccc(Cl)c(Cl)c1	TDP1 cell noCPT 9.2µM, miR-21 reporter inconclusive, DT40 TDP1 CPT 12µM, uPA surface inh inconclusive
Cc1cc(C)cc(NC(=S)Nc2ccc(Cl)c(Cl)c2)c1	TDP1 cell noCPT 21µM, DT40 TDP1 CPT inconclusive
Cc1ccc(NC(=O)c2ccc(Cl)c(N3C(=O)C=CC3=O)c2)cc1	TDP1 cell noCPT 2.1µM, DT40 TDP1 CPT 1.2µM
Cc1ccc(NC(=S)Nc2ccc(Cl)c(Cl)c2)c(OC(F)F)c1	TDP1 cell noCPT 18µM, DT40 TDP1 CPT 21µM
Cc1noc(C)c1COc1ccccc1C(=O)N1CCN(S(=O)(=O)c2cccc([N+](=O)[O-])c2)CC1	none (no result: miR-21 reporter)
O=C(Nc1ccc(Cl)c(Cl)c1)c1ccc(Cl)c(Cl)c1	TDP1 cell noCPT 5.8µM, DT40 TDP1 CPT inconclusive
O=C(Nc1ccc(Cl)c(Cl)c1)c1ccncc1	TDP1 cell noCPT inconclusive
O=C(Nc1ccc(Cl)c(Cl)c1)OCCNC(=O)c1ccncc1	TDP1 cell noCPT 23µM, DT40 TDP1 CPT inconclusive
Cc1noc(C)c1NC(=O)Nc1ccc2c(c1)C(=O)N([C@H](C)CO)C[C@H](C)[C@@H](CN(C)S(=O)(=O)c1ccccc1)O2	none (no result: miR-21 reporter)
COc1cccc(-c2cn3c(n2)sc2cc(C(=O)NCc4ccccc4F)ccc23)c1	TDP1 cell noCPT 16µM, DT40 TDP1 CPT inconclusive (no result: uPA surface inh)
COc1ccc(-c2cn3c(n2)sc2cc(C(=O)NCc4ccccc4OC)ccc23)cc1	TDP1 cell noCPT inconclusive (no result: uPA surface inh)
COc1cccc(-c2cn3c(n2)sc2cc(C(=O)NCCC4=CCCCC4)ccc23)c1	TDP1 cell noCPT 6.5µM, DT40 TDP1 CPT 13µM (no result: uPA surface inh)
COc1cccc(-c2cn3c(n2)sc2cc(C(=O)NCCc4ccc(OC)c(OC)c4)ccc23)c1	TDP1 cell noCPT 2.3µM, DT40 TDP1 CPT 4.6µM (no result: uPA surface inh)
CCOc1ccccc1CNC(=O)c1ccc2c(c1)sc1nc(-c3cccc(OC)c3)cn12	TDP1 cell noCPT 8.2µM, DT40 TDP1 CPT 8.2µM (no result: uPA surface inh)
CC(=O)c1ccc(-n2c(CCC(=O)O)ccc2-c2ccc(Br)cc2)cc1	none (no result: TDP1 block)
O=C(CSc1nnc(-c2cccs2)o1)N1CCCCC1	none
CCNC(=O)c1ccc2c(c1)sc1nc(-c3cccc(OC)c3)cn12	TDP1 cell noCPT 7.3µM, DT40 TDP1 CPT 6.5µM (no result: uPA surface inh)
CC(C)(CNc1ccc(C(F)(F)F)cc1[N+](=O)[O-])N1CCOCC1	none
Cn1c(=O)c2c(-c3ccccc3Cl)n(Cc3ccc(Cl)cc3)cc2n(C)c1=O	TDP1 cell noCPT 6.5µM, DT40 TDP1 CPT 8.2µM (no result: uPA surface inh)
Cn1c(=O)c2c(-c3ccccc3Cl)n(-c3cc(Cl)ccc3O)cc2n(C)c1=O	TDP1 cell noCPT inconclusive, DT40 TDP1 CPT 21µM (no result: uPA surface inh)
O=C(NCCc1ccc(Cl)cc1)c1ccc2c(c1)OCCO2	TDP1 cell noCPT inconclusive, uPA surface inh inconclusive (no result: TDP1 block)
O=C(CCCN1C(=O)c2cccc3cccc(c23)C1=O)NCc1cccnc1	none
O=C(CCCCCN1C(=O)c2cccc3cccc(c23)C1=O)NCc1cccnc1	TDP1 cell noCPT inconclusive, DT40 TDP1 CPT 2.9µM
CCc1ccc(NC(=O)CSC2=Nc3ccccc3C3=NC(CC(=O)NC4CCCCC4)C(=O)N23)cc1 (stereo not drawn)	TDP1 cell noCPT 9.2µM, DT40 TDP1 CPT 12µM (no result: uPA surface inh)
CCOc1ccc(NC(=O)CSC2=Nc3ccccc3C3=NC(CC(=O)NCc4ccco4)C(=O)N23)cc1 (stereo not drawn)	TDP1 cell noCPT 23µM, DT40 TDP1 CPT 15µM (no result: uPA surface inh)
CN(C(=O)CSC1=Nc2ccccc2C2=NC(c3ccccc3)C(=O)N12)C1CCCCC1 (stereo not drawn)	TDP1 cell noCPT inconclusive, DT40 TDP1 CPT 21µM
COc1ccc(NC(=O)CSC2=Nc3ccccc3C3=NC(CCC(=O)NC4CCCCC4)C(=O)N23)cc1Cl (stereo not drawn)	TDP1 cell noCPT 23µM, DT40 TDP1 CPT inconclusive (no result: uPA surface inh)
O=C(CSC1=Nc2ccccc2C2=NC(CC(=O)NC3CCCCC3)C(=O)N12)Nc1ccc(F)cc1 (stereo not drawn)	DT40 TDP1 CPT inconclusive (no result: uPA surface inh)
O=C(Cn1c(=O)n(-c2ccccc2)c(=O)c2c3c(sc21)CCC3)c1ccc(F)cc1	DT40 TDP1 CPT inconclusive (no result: uPA surface inh)
O=C(CCC1N=C2c3ccccc3N=C(SCc3cccc(F)c3)N2C1=O)NC1CCCCC1 (stereo not drawn)	none (no result: uPA surface inh)
COc1ccc(OC)c(NC(=O)CSC2=Nc3ccccc3C3=NC(CCC(=O)NC4CCCCC4)C(=O)N23)c1 (stereo not drawn)	none (no result: uPA surface inh)
COc1ccc(NC(=O)CSC2=Nc3ccccc3C3=NC(CCC(=O)NC4CCCCC4)C(=O)N23)cc1 (stereo not drawn)	DT40 TDP1 CPT inconclusive (no result: uPA surface inh)
CCOc1ccccc1NC(=O)CSC1=Nc2ccccc2C2=NC(CC(=O)NC3CCCCC3)C(=O)N12 (stereo not drawn)	TDP1 cell noCPT 21µM, DT40 TDP1 CPT 21µM (no result: uPA surface inh)
CC(C)c1ccc(NC(=O)CSC2=Nc3ccccc3C3=NC(CCC(=O)NC4CCCCC4)C(=O)N23)cc1 (stereo not drawn)	TDP1 cell noCPT 23µM, DT40 TDP1 CPT 23µM (no result: uPA surface inh)
CC(C)c1ccc(NC(=O)CSC2=Nc3ccccc3C3=NC(CC(=O)NC4CCCCC4)C(=O)N23)cc1 (stereo not drawn)	TDP1 cell noCPT 21µM, DT40 TDP1 CPT 21µM (no result: uPA surface inh)
